Assay results taken from article PMC12163725, “Synthesis and functionalization of vinyl sulfonimidamides and their potential as electrophilic warheads” (Chemical Science, 2025).

Experiment: Kinetic study of reaction with glutathione (GSH), half-life by 1H NMR (disappearance of vinyl group)
Conditions: pH 7.3 buffer/(CD3)2SO

Control experiments (reactivity without GSH): only GSH-dependent reactivity
SMILES: C=CC(=O)N1CCOCC1 [Compound 8, 4-acryloylmorpholine]
